This is an account of results in PubChem BioAssay AID435003 (Sanford-Burnham Center for Chemical Genomics, 2010).

This is a selection; strong and weak results do not stand in their true shares. Activity calls are given as the source filed them. Cut-off read from the data, not from the text of the source: active = inhibition above about 50%; inactive = the rest.

This experiment can be described thus: inhibitors of induced NF-kB luciferase reporter, primary screen, TCR NF-kB activation inhibitor project, cell-based, luminescence, uHTS (AID 435003). Particulars: Jurkat, PMA/ionomycin-induced NF-kB luciferase reporter, at 4 µM, stronger effect = higher value. (In general: Reporter assays use an easily measured gene product as a stand-in for the process of interest.)
As usually defined, the inhibition is the drop in the measured response relative to a control, in per cent. For the compound `CCC(=O)N(c1ccccc1)C1(COC)CCN(CCn2nnn(CC)c2=O)CC1`, the inhibition is inactive: -0.0994%. `CCC(=O)N(c1ccccc1)C1(COC)CCN(CCc2cccs2)CC1`: the inhibition is inactive: -23.6%.
